Measurements from patent US20070009597A1, “Active substance combination comprising a compound with npy receptor affinity and a compound with 5-ht6 receptor affinity” (LABORATORIOS DEL DR. ESTEVE S.A., priority 2003, published 2007).

Chains of the proteins cited; added tags and fusions are not shown.
UniProt P50406, whole entry: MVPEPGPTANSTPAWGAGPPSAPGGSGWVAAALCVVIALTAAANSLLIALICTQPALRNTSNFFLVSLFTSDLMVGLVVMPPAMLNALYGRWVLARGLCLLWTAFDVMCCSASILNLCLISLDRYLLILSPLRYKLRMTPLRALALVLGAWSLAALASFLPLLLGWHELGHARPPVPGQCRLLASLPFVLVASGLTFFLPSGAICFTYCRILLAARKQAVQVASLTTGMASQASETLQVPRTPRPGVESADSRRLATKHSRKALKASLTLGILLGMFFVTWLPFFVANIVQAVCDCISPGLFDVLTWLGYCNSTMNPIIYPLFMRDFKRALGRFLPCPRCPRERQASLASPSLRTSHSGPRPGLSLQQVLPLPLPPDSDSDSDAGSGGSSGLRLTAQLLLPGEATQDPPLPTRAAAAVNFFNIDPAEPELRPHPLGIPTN

Molecular target: T1, recombinant human 5HT6 receptor (Homo sapiens, UniProt P50406)
T1 construct: purchased Receptor Biology; host or cells: HEK-293
Test: Binding to the 5HT6 serotonin receptor ([3H]-LSD, HEK-293 cell membranes)

CN1CC=C(c2cn(S(=O)(=O)C3CCCCC3)c3ccc(Cl)cc23)CC1 [Example 2h, 5-Chloro-1-cyclohexanesulfonyl-3-(1-methyl-1,2,3,6-tetrahydropyridine-4-yl)-1H-indole]
Ki: 98.2 nM
